Legend:
Assay in all cases: cells
[1] = test system: HCT-116; settings: Homo sapiens, HCT-116, 0.5 h
[2] = test system: NCI-H522; settings: Homo sapiens, NCI-H522, 0.5 h
[3] = test system: HCT-116; settings: Homo sapiens, HCT-116, 72 h
[4] = test system: NCI-H522; settings: Homo sapiens, NCI-H522, 72 h

| IC50 [1] | IC50 [2] | IC50 [3] | IC50 [4] | SMILES |
| --- | --- | --- | --- | --- |
| 5.43 µM | 520 nM | – | – | C#Cc1nc(/C=C/C=C/C(=O)NO)cs1 |
| – | – | > 40 µM | – | C#Cc1nc(C=CCCCCCC(=O)O)cs1 |
| – | – | 13.7 µM | 2.29 µM | C#Cc1nc(/C=C/C(=O)OC)cs1 |
| 5.16 µM | 790 nM | – | – | C#Cc1nc(/C=C/C(=O)NO)cs1 |
| – | – | – | 3.33 µM | C#Cc1nc(C(=O)NCCCCCCC(=O)OC)cs1 |
| – | – | – | 2.8 µM | C#Cc1nc(/C=C/C=C/C(=O)OC)cs1 |
| – | – | – | 7.33 µM | C#Cc1nc(/C=C\CCCCCC(=O)OCC)cs1 |
| – | – | 33 µM | 15.7 µM | C#Cc1nc(/C=C/CCCCCC(=O)OCC)cs1 |

| SMILES | IC50 [1] | IC50 [2] | IC50 [3] | IC50 [4] |
| --- | --- | --- | --- | --- |
| C#Cc1nc(C2=C(C)[C@@H](O)CC2)cs1 | – | – | – | 5.62 µM |
| C#Cc1nc(C(=O)NCCCCCCC(=O)NO)cs1 | 0.61 µM | – | – | – |
